AlphaSeq binding of Ab-14 heavy chain variants to a spike HR2 peptide

Target peptide (SARS-CoV-2 spike, HR2 region): PDVDLGDISGINAS

The variants keep the light chain, the linker and the frameworks of Ab-14 (scFv order VH, a (GGGGS)3 linker, VL).
VH: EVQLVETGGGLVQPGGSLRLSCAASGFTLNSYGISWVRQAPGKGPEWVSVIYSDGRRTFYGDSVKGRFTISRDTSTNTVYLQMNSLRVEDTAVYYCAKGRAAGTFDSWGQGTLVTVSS
VL: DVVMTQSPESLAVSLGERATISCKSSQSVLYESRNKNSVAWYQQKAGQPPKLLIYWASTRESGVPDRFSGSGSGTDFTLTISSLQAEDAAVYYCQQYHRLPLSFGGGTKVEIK

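The parent was found by panning a naive human phage display library on the peptide. This is the validation round: designs drawn from the data on random variants, tested in the same kind of assay. Their group label is 14H_En_Gibbs (En: ensemble of fine-tuned language models; Gibbs: Gibbs sampling). The scFvs were displayed on barcoded MATa yeast, the peptide on MATalpha yeast. Mating (16 h, 30 °C) was followed by selection of diploids and sequencing of their barcodes. Each replicate has its own calibration line, from reference interactions of the BCL2 family. Mating was done six times.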

Variants are written as CDR1, CDR2 and CDR3 of the heavy chain (limits as in the source). Parent: GFTLNSYGIS, VIYSDGRRTFYGDSVK, GRAAGTFDS.
Scale: log10 of Kd in nM, estimated from mating counts; low values are strong binders.
A mean of the replicates is given; it leaves out those without a signal.
A pair that was not seen in that replicate is written "nd"; this usually means weak binding, but a binder can also be missed.
A sequence measured in both rounds can read differently, since the two assays cover different ranges.
The parent sequence was in this pool as ten entries: three were never detected, three once, and four in most replicates, with averages from 0.34 to 2.37.
In the paper, a design with two or fewer of six values counts as a poor binder.
Nonspecific signal, from three strains lacking the peptide, appeared in 1% of pairings of all heavy chain designs, centred on 2.08 (5% of these signals below 0.84); values are not corrected for it. For each scFv, signals with the empty controls are counted beside the result, with their mean in brackets.

| # | CDR-H1 | CDR-H2 | CDR-H3 | log10 Kd, replicates | mean, log10 nM | signal with controls |
|---|---|---|---|---|---|---|
| 1 | GFSLAEYGIS | VIYADGSRTAYADAVK | GYNGKIGDK | nd / nd / nd / nd / nd / nd | nd | 0/18 |
| 2 | GFDLTEYGIS | VIYADGRRTEYSTDVK | GQVAGHFLD | nd / nd / nd / nd / nd / nd | nd | 0/18 |
| 3 | GFDLQEYGIS | VIYADGQRTKVAENVK | GNVTFTGLV | nd / nd / nd / nd / nd / nd | nd | 0/18 |
| 4 | GFDIEEYGIS | VIYADGYRTAYKQKVK | GQIAGGQFD | nd / nd / nd / nd / nd / nd | nd | 0/18 |
| 5 | GFSLNEYGIS | VIYADGKSRHYADSVK | GLISGFFDI | nd / nd / nd / nd / nd / nd | nd | 0/18 |
| 6 | GESLDSYGIS | VIYADGMRTSYDNSVK | GVWAGTFDM | nd / nd / nd / nd / 1.70 / nd | 1.70 | 0/18 |
| 7 | GKTLDEYGIS | VIYADGMRTQYIDQVK | GDIVNTNMT | 1.20 / 1.08 / 1.96 / 1.86 / 1.26 / 1.75 | 1.52 | 0/18 |
| 8 | GDNLDEYGIS | VIYADGHRTAYSDPVK | GEYGVTVGQ | nd / nd / nd / nd / nd / nd | nd | 0/18 |
| 9 | GFDLNEYGIS | VIYADGLRKSYANSVK | NGLRSFFFV | nd / nd / nd / nd / nd / nd | nd | 1/18 (1.61) |
| 10 | GFDLGEYGIS | VIYADGRRKAYSDAVK | GIHVYGKTV | nd / nd / nd / nd / nd / nd | nd | 0/18 |
| 11 | GKDLQEYGVS | VIYADGMRKSYADSVK | GNHAGYLDK | nd / nd / nd / nd / nd / nd | nd | 0/18 |
| 12 | GNDLNEYGIS | VIYADGQRTQYASSFK | GDLAGYFES | nd / nd / nd / nd / nd / nd | nd | 0/18 |
| 13 | GFDIEEFGIS | VIYADGKRMAYSNNVK | GLMAGTMGD | nd / nd / nd / nd / 0.81 / -0.09 | 0.36 | 0/18 |
| 14 | GKSLEEYGIS | VIYADGKRNMYANDVK | GHVGYIFMM | nd / nd / nd / nd / nd / nd | nd | 0/18 |
| 15 | GFDLQEYGIS | VIYADGKRTAYIQKVK | GQIVGGQFD | nd / nd / nd / nd / nd / nd | nd | 0/18 |
| 16 | GFDLGEFGIS | VIYADGMRTAYSDAVK | GTFSGTLDV | 0.63 / 0.34 / 0.78 / nd / 0.73 / 1.65 | 0.83 | 0/18 |
| 17 | GQGLNEYGIS | VIYADGMRTYYAPNVK | GQVLGVMDI | nd / nd / nd / nd / nd / nd | nd | 0/18 |
| 18 | KFDIEHYGIS | VIYADGKRTAYSNAVK | GWQGGTFNT | 0.82 / 0.80 / 0.67 / 0.42 / 1.09 / 0.26 | 0.68 | 0/18 |
| 19 | GFDLEEYGIS | VIYADGKRSQYTDAVK | GKFLVMMTY | nd / nd / nd / nd / nd / nd | nd | 0/18 |
| 20 | GMDLNEYGIS | VIYADGLRTAYIDAVK | GKGSVIVGH | nd / nd / nd / nd / nd / nd | nd | 0/18 |
| 21 | GMNLGEYGIS | VIYADGVRQAYVDKVK | GFNGVDGLV | nd / nd / nd / nd / nd / nd | nd | 0/18 |
| 22 | GYDLEEYGIS | VIYADGRRASYIENVK | DGVNDGVFV | nd / nd / nd / nd / nd / nd | nd | 0/18 |
| 23 | GFKLDEYGIS | VIYADGHRVAYSNKVK | GDNVGNMFE | -0.03 / -0.31 / -0.42 / 0.31 / -0.45 / -0.04 | -0.16 | 0/18 |
| 24 | GADLQEYGIS | VIYADGNRYAYANSVK | GTQGGSLIV | 1.34 / 1.95 / nd / nd / nd / nd | 1.64 | 1/18 (1.01) |
| 25 | GFEIQEYGIS | VIYADGRRTAYAEQVK | GNMGGTFST | 0.72 / 0.63 / 0.69 / 1.42 / -0.37 / -0.13 | 0.49 | 0/18 |
| 26 | GFDLQEYGIS | VIYADGVREAYTENVK | GNSGGRDML | nd / nd / nd / nd / nd / nd | nd | 0/18 |
| 27 | GFDLNNYGIS | VIYADGLRVQYENKVK | GDVAGTFDS | -0.10 / -0.82 / -1.07 / -0.86 / 0.01 / 0.36 | -0.41 | 0/18 |
| 28 | GADLNEYGIS | VIYADGDRKAYQDDVK | GDVGGDFDE | nd / nd / nd / nd / nd / nd | nd | 0/18 |
| 29 | GFNLSEYGIS | VIYADGRRTAYKDTVK | GVRTWQFDL | nd / nd / nd / nd / nd / nd | nd | 0/18 |
| 30 | GFNLNEYGIS | VIYADGVRTSYTDQVK | GVETGAVLE | nd / nd / nd / nd / nd / nd | nd | 0/18 |
| 31 | GFNLLEYGIS | VIYADGRRTFYTDSFK | GGSGKDLYT | nd / nd / nd / nd / nd / nd | nd | 0/18 |
| 32 | GFDIQDLGIS | VIYADGQRTAYSDGFK | GIIAGTFNI | nd / 1.72 / nd / 1.89 / nd / 1.89 | 1.83 | 0/18 |
| 33 | GFDLNEYGVS | VIYADGQRTQYTDKVK | GSESASITN | nd / nd / nd / nd / nd / 3.66 | 3.66 | 1/18 (2.98) |
| 34 | DFNLNEYGIS | VIYADGMRASYRNDVK | GQISGDFML | nd / nd / nd / nd / nd / nd | nd | 0/18 |
| 35 | GKKLDEYGIS | VIYADGVRSHYAESVK | GQHGTYGVA | nd / nd / nd / nd / nd / nd | nd | 0/18 |
| 36 | GFDLDEYGIS | VIYADGMRSAIRESVK | GEISGTLNA | 0.52 / -0.02 / 0.05 / 0.60 / 1.01 / nd | 0.43 | 0/18 |
| 37 | GFGLDEFGIS | VIYADGQRTAYLNSFK | GENSNAYDT | nd / nd / nd / nd / nd / nd | nd | 0/18 |
| 38 | GFSLDEMGIS | VIYADGQRTSYVDNVK | GVQGMRVSL | nd / nd / nd / nd / nd / nd | nd | 0/18 |
| 39 | GFDLNEYGIS | VIYADGSRASYADKVK | GLNGGQLIV | nd / nd / nd / nd / nd / nd | nd | 0/18 |
| 40 | GFDLGEYGIS | VIYADGQRVSYQDAVK | GQSSVYYTA | 1.18 / 0.57 / 1.69 / 1.40 / 0.70 / 1.22 | 1.13 | 0/18 |
| 41 | GFALNEYGIS | VIYADGFRRAYTDKVK | GVLVGNFSS | nd / nd / nd / nd / nd / nd | nd | 0/18 |
| 42 | GFDLEEFGIN | VIYADGSRKVYTDAVK | GEVSGDFDK | nd / nd / nd / nd / nd / nd | nd | 0/18 |
| 43 | GNDLQEYGIS | VIYADGMRNQYVQSVK | GMNAGVFVY | nd / nd / nd / nd / nd / nd | nd | 0/18 |
| 44 | GFDLNEYGIS | VIYADGIRSKYTDNVK | GMLTGTAVQ | nd / nd / nd / nd / nd / nd | nd | 0/18 |

Excerpt, the first 7 entries:

| CDR-H1 | CDR-H2 | CDR-H3 | log10 Kd, replicates | mean, log10 nM | signal with controls |
|---|---|---|---|---|---|
| GFSLAEYGIS | VIYADGSRTAYADAVK | GYNGKIGDK | nd / nd / nd / nd / nd / nd | nd | 0/18 |
| GFDLTEYGIS | VIYADGRRTEYSTDVK | GQVAGHFLD | nd / nd / nd / nd / nd / nd | nd | 0/18 |
| GFDLQEYGIS | VIYADGQRTKVAENVK | GNVTFTGLV | nd / nd / nd / nd / nd / nd | nd | 0/18 |
| GFDIEEYGIS | VIYADGYRTAYKQKVK | GQIAGGQFD | nd / nd / nd / nd / nd / nd | nd | 0/18 |
| GFSLNEYGIS | VIYADGKSRHYADSVK | GLISGFFDI | nd / nd / nd / nd / nd / nd | nd | 0/18 |
| GESLDSYGIS | VIYADGMRTSYDNSVK | GVWAGTFDM | nd / nd / nd / nd / 1.70 / nd | 1.70 | 0/18 |
| GKTLDEYGIS | VIYADGMRTQYIDQVK | GDIVNTNMT | 1.20 / 1.08 / 1.96 / 1.86 / 1.26 / 1.75 | 1.52 | 0/18 |

From the AlphaSeq antibody data of Li et al. 2023 (doi:10.1038/s41467-023-39022-2), copy in the FLAb collection.